# Source: PubChem BioAssay (Broad Institute)
# PDI inh: inhibitors of human protein disulfide isomerase; PDI insulin aggregation turbidity, A650, 90 min; inhibition, % at 10 µM; 0.052% of 350,000 active; AID 588391;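 active = mean inhibition across replicates of 30% or more, whatever share of single replicates reach that level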
# ERp5 block: blocks human ERp5 reductase activity on insulin. Q15084. inhibition, % at 9.99 µM. 0.05% of 350,000 active. AID 651711. ERp5 insulin aggregation, absorbance 650 nm, 90 min;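 active = mean replicate inhibition above about 25%, with every replicate also reaching it, limit read from the data, passing the limit was not always enough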
# FGF22 binding: binders of recombinant human FGF22 by thermal shift. Q9HCT0. SYPRO orange fluorescence; percent of sucrose octasulfate shift, DMSO zero. activity (Tm shift, normalised), % at 9.99 µM. 1.5% of 340,000 active. AID 651658;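 active = mean Tm shift, scaled 0 neutral to 100 positive control, at about 1.3% or above, every replicate too, limit read from the data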
# S100A4 inh HTS: inhibitors of human S100A4 binding to myosin IIA peptide; P26447; S100A4/TAMRA-MyoIIA peptide fluorescence polarization; inhibition, % at 10.7 µM; 0.14% of 360,000 active; AID 652163;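 active = mean inhibition of at least 70% across replicates, with every replicate also reaching that level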
#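 Compound dosing: one dose per compound; test system: human S100A4 monomer with TAMRA-labelled myosin IIA peptide; probe or stimulus: TAMRA-labelled myosin IIA heavy-chain peptide probe, 5 nM; medium: HEPES buffer with Ca2+, pH 7.2; schedule: 5 min incubation before reading; benchmarks: neutral control DMSO, positive control TFP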
# Yeast UUG start: modulators of start codon recognition fidelity in yeast; activity score, % at 18.7 µM; actives 0.13% (n = 350,000); S. cerevisiae UUG-firefly luciferase reporter, luminescence/redox ratio;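 active = replicate mean at a twofold rise or more, about +100% in these data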;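 note: firefly luciferase made from a UUG start codon reports start codon fidelity; reporter light over untreated wells divided by growth signal over untreated wells; some hits fall short of that in this replicate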
# SIRT5 inh: blocks human SIRT5 desuccinylation of peptide; Q9NXA8; Purified SirT5, succinyl-peptide AMC, trypsin-coupled fluorescence; inhibition, % at 15 µM; 1.1% of 330,000 active; AID 652115; in the data active = inhibition above about 15%
# * marks the source's active call; other numbers are inactive results; · = no result. Most compounds without a hit are left out; they make up all but 2.2% or so of the library.
Structure | PDI inh | ERp5 block | FGF22 binding | S100A4 inh HTS | Yeast UUG start | SIRT5 inh
C[C@H](CO)N1C[C@H](C)[C@@H](CN(C)Cc2ccc3c(c2)OCO3)Oc2ccc(NC(=O)Nc3ccc(C(F)(F)F)cc3)cc2CC1=O | · | 3 | 0 | 16 | 13 | 1
O=C(O)CC1=C(O)C(=O)N(c2ccccc2)C1c1ccc(Cl)cc1 (stereo unspecified) | -2 | · | · | · | 7 | ·
O=C(O)CC1=C(Nc2ccccc2)C(=O)N(c2ccccc2)C1c1ccc(Br)cc1 (stereo unspecified) | 9 | -2 | 43* | 2 | · | 17*
CNCCOc1nc(N2CCOCC2)nc(C)c1[N+](=O)[O-] | 21 | 3 | 0 | 4 | -16 | -2
CCOc1nc(N2CCOCC2)nc(C)c1[N+](=O)[O-] | 4 | 1 | 44* | 1 | · | 0
CNC[C@H]1Oc2c(NS(=O)(=O)c3ccc(C)cc3)cccc2C(=O)N([C@H](C)CO)C[C@@H]1C | · | -2 | 0 | 9 | -6 | 0
O=C(NCC[C@H]1CC[C@H](NC(=O)c2cccnc2)[C@H](CO)O1)Nc1ccc(Cl)cc1 | · | 5 | 0 | 4 | -11 | -1
CC(/C=N/Nc1nc(C)cc(=O)[nH]1)=C\c1ccccc1 | 9 | -1 | 43* | 4 | -37 | -1

# Continuation:
Structure | PDI inh | ERp5 block | FGF22 binding | S100A4 inh HTS | Yeast UUG start | SIRT5 inh
CS(=O)(=O)Nc1ccc2c(c1)[C@@H]1C[C@H](CC(=O)NCc3cccnc3)O[C@H](CO)[C@@H]1O2 | · | -2 | 0 | -19 | -6 | -2
CCCS(=O)(=O)c1nc(C)cc(C)c1S(C)(=O)=O | 3 | 1 | 1 | 4 | · | -3
Cc1cc(C)c(S(C)(=O)=O)c(NN)n1 | -1 | 1 | 44* | -3 | · | -6
C/C(=N/NC(=O)c1sc(NS(=O)(=O)c2ccc(C)cc2)nc1C)c1sc(N)nc1C | -3 | -3 | 43* | 7 | · | 9
CC1CCC(NC(=O)CN(C)S(=O)(=O)c2cnc[nH]2)CC1 (stereo unspecified) | -4 | -5 | 0 | 0 | · | -4
Cc1cccc(NC(=O)CN(C)S(=O)(=O)c2cnc[nH]2)c1C | 0 | -1 | 0 | -2 | -8 | 1
CC(NC(=O)CN(C)S(=O)(=O)c1cnc[nH]1)c1ccccc1 (stereo unspecified) | 1 | 1 | 44* | 0 | · | 0
CC1CCCC(NC(=O)CN(C)S(=O)(=O)c2cnc[nH]2)C1C (stereo unspecified) | -1 | 1 | 43* | 11 | · | -2

# Next part:
Structure | PDI inh | ERp5 block | FGF22 binding | S100A4 inh HTS | Yeast UUG start | SIRT5 inh
N=C1/C(=C/c2ccc(-c3cccc(C(=O)O)c3)o2)C(=O)N=C2SC(CC(=O)N3CCOCC3)=NN12 | -16 | 3 | 0 | 3 | -12 | 22*
COc1ccc(CNC(=O)C[C@@H]2C=C[C@@H](NC(=O)Nc3ccc4c(c3)OCO4)[C@H](CO)O2)cc1 | · | -5 | 0 | -1 | -21 | -1
O=C(NN1C(=O)C2C(C1=O)C1C=CC2C12CC2)c1ccncc1 (stereo unspecified) | 1 | · | · | · | -9 | ·
O=C(NN1C(=O)C2C(C1=O)C1C=CC2C12CC2)c1cccnc1 (stereo unspecified) | -9 | 5 | 44* | -2 | · | -7
CN(C(=O)c1ccc(S(=O)(=O)N2CCOCC2)cc1)C1CCS(=O)(=O)C1 (stereo unspecified) | -10 | 1 | 0 | -1 | -10 | -2
CC1CCN(S(=O)(=O)c2ccc(C(=O)N(C)C3CCS(=O)(=O)C3)cc2)CC1 (stereo unspecified) | 2 | 12 | 0 | -15 | -17 | 25*
O=c1nc2cccc3c2=c(/c1=C(\O)c1ccccc1)c1ccccc1c3=O | 7 | 5 | 44* | 4 | 1 | 2
CC(C)NC(=O)N(C)C[C@@H]1OCCCC[C@H](C)Oc2ccc(NC(=O)c3ccccc3)cc2C(=O)N([C@H](C)CO)C[C@H]1C | · | 2 | 0 | -5 | · | 7

# The final 5 records of the section above lead into the next:
Structure | PDI inh | ERp5 block | FGF22 binding | S100A4 inh HTS | Yeast UUG start | SIRT5 inh
O=C(NN1C(=O)C2C(C1=O)C1C=CC2C12CC2)c1cccnc1 (stereo unspecified) | -9 | 5 | 44* | -2 | · | -7
CN(C(=O)c1ccc(S(=O)(=O)N2CCOCC2)cc1)C1CCS(=O)(=O)C1 (stereo unspecified) | -10 | 1 | 0 | -1 | -10 | -2
CC1CCN(S(=O)(=O)c2ccc(C(=O)N(C)C3CCS(=O)(=O)C3)cc2)CC1 (stereo unspecified) | 2 | 12 | 0 | -15 | -17 | 25*
O=c1nc2cccc3c2=c(/c1=C(\O)c1ccccc1)c1ccccc1c3=O | 7 | 5 | 44* | 4 | 1 | 2
CC(C)NC(=O)N(C)C[C@@H]1OCCCC[C@H](C)Oc2ccc(NC(=O)c3ccccc3)cc2C(=O)N([C@H](C)CO)C[C@H]1C | · | 2 | 0 | -5 | · | 7
COc1ccc(CNC(=O)C[C@H]2C=C[C@H](NC(=O)c3ccc4c(c3)OCO4)[C@H](CO)O2)cc1 | · | 4 | · | 5 | · | -4
COc1ccc2c3c(n(C)c2c1)[C@@H](CO)N(C)CC31CN(C(=O)c2ccccc2F)C1 | · | 5 | 0 | 3 | · | ·
CC(=O)Nc1ccc2c(c1)Cc1ccc(Cl)cc1-2 | -1 | 1 | 0 | -1 | -11 | 1
CC(=O)Nc1cc2c(cc1Cl)Cc1cc(Cl)ccc1-2 | -6 | -6 | 43* | -3 | -13 | ·
CO[C@@H]1CN(C)C(=O)c2cc(NS(=O)(=O)c3ccc(C)cc3)ccc2OC[C@@H](C)NC[C@@H]1C | · | 2 | 0 | -7 | -5 | -5
COc1ccc(/C=N/NC(=O)c2sc(C)nc2C)cc1 | 4 | 0 | 43* | -3 | · | 5
Cc1ccc(C2=NN(S(=O)(=O)c3ccccc3)C(c3ccco3)C2)cc1 (stereo unspecified) | 0 | 3 | 0 | -1 | 0 | -6
O=S(=O)(c1ccccc1)N1N=C(c2ccc(O)cc2)CC1c1ccco1 (stereo unspecified) | 38* | 11 | 0 | -22 | -14 | 2

# Next part:
Structure | PDI inh | ERp5 block | FGF22 binding | S100A4 inh HTS | Yeast UUG start | SIRT5 inh
Cn1c(C(=O)N2CCN(c3ccc([N+](=O)[O-])cc3)CC2)cc2c(=O)[nH]c3ccccc3c21 | 7 | -3 | 44* | 1 | -10 | 1
Cc1cc(C(=O)N2CCN(c3ccc([N+](=O)[O-])cc3)CC2)co1 | -4 | 4 | 0 | 6 | -9 | 0
Cc1cccc(-c2cc3nc(C)cc(NCCCn4ccnc4)n3n2)c1 | -5 | · | · | · | -18 | ·
CCOc1cccc(-c2cc(NCCc3ccccn3)n3nccc3n2)c1 | -1 | 0 | 43* | 5 | -16 | ·
Cc1cccc(-c2cc(NCCc3cccnc3)n3nccc3n2)c1 | -56 | 1 | 43* | 12 | -18 | ·
CCOc1cccc(-c2cc(N3CCN(CCO)CC3)n3nccc3n2)c1 | -4 | -3 | 1 | 11 | -14 | -1
COCC#Cc1cnc2c(c1)C(=O)N([C@H](C)CO)C[C@@H](C)[C@@H](CN(C)Cc1ccccc1)O2 | · | -1 | 0 | 16 | 5 | -2
O=C(O)COc1ccccc1/C=N/NC(=O)c1cccc(S(=O)(=O)Nc2cccc(Cl)c2)c1 | -6 | 0 | 43* | 2 | · | -2

# New compounds follow.
Structure | PDI inh | ERp5 block | FGF22 binding | S100A4 inh HTS | Yeast UUG start | SIRT5 inh
COc1ccccc1NS(=O)(=O)c1cccc(C(=O)N/N=C/c2ccc(OCC(=O)O)cc2)c1 | 5 | 3 | 1 | -4 | · | 4
Cc1cc(C(F)(F)F)c2c(N)c(C(=O)NCc3ccc(Cl)cc3)sc2n1 | · | -1 | 43* | 4 | · | ·
CCCn1cc(S(=O)(=O)c2ccc(C)cc2)c(=O)c2cc(OC)ccc21 | -7 | -7 | 0 | 0 | 7 | 1
CCCn1cc(S(=O)(=O)c2ccc(C)cc2)c(=O)c2cc(OC)c(OC)cc21 | 13 | 1 | 0 | 2 | -18 | 20*
